Assay results from patent US11274129B2, “Methods for protein tyrosine phosphorylation profiling with variant SH2 domains” (priority 2016, dated 2022).

Columns and labels:
[1] = system: trastuzumab-resistant SK-BR-3 clone; test: MTT cell proliferation assay; type: cell-based, human; settings: 4 μg/ml trastuzumab, 48 hours (FIG. 13A)
[2] = system: original (trastuzumab-sensitive) SK-BR-3 clone; test: MTT cell proliferation assay; type: cell-based, human; settings: original SK-BR-3 clone; 4 μg/ml trastuzumab, 48 hours (FIG. 13A)
Description: SK-BR-3 cells were grown in RPMI 1640 medium supplemented with 10% FBS, 100 μg/ml penicillin/streptomycin and L-glutamine. Cells were incubated at 37° C. in a humidified atmosphere containing 5% carbon dioxide.
Drug sensitivity was measured by MTT cell proliferation assays.

## trastuzumab
[1]
  relative cell proliferation (drug sensitivity): less sensitive
[2]
  relative cell proliferation (drug sensitivity): sensitive
